Results reported in patent US11304930B2, “Ammonium salts of 3-(3,5-dibromo-4-hydroxybenzyliden)-5-indo-1,3-dihydroindol-2-one and uses thereof” (Metagone Biotech Inc., priority 2018, dated 2022).
Where two headings read alike, the source gives them in different places.

Assay: Water solubility of GW5074 salts

Solubility: 1 mg/100 mL
Solubility (listed as ethylenediamine salt of GW5047): 1.0 mg/100 mL
Substance: Ethylenediamine salt of GW5075
